Reference: US10669269B2, “Substituted N-(1H-indazol-4-yl)imidazo[1,2-a]pyridine-3-carboxamide compounds as type III receptor tyrosine kinase inhibitors” (ARRAY BIOPHARMA INC., priority 2010, dated 2020)
pIC50: −log10 of the molar value.

Protein sequences, listed by entry. Tags and fused reporters are not part of them. Residues count along the entry.
UniProt P10721, 26-976 limits assumed: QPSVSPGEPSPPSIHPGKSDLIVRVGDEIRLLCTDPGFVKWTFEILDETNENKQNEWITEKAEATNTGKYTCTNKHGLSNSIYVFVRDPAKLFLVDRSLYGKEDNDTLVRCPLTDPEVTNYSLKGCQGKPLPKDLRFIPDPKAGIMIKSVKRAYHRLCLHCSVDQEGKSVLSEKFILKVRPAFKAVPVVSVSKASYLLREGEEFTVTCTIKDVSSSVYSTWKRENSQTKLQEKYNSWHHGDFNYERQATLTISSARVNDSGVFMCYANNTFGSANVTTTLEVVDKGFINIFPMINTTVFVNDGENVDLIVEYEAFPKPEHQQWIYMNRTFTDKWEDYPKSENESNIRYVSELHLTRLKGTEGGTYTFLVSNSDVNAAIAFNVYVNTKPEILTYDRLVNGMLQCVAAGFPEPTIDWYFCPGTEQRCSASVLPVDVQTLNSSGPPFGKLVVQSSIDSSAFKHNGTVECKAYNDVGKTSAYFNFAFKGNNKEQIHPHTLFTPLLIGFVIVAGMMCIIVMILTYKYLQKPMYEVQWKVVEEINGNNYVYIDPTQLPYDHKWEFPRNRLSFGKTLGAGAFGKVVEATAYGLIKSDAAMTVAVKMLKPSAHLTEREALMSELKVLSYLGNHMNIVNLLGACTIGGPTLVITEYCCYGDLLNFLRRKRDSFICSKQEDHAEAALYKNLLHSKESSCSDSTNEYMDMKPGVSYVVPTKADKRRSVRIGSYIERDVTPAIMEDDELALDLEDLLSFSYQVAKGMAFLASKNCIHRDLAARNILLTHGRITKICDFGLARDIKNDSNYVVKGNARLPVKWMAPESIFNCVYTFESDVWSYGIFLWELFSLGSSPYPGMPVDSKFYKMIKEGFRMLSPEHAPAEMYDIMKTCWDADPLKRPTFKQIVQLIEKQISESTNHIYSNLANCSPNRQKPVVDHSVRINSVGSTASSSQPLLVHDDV
UniProt P09619, 33-1106 limits assumed: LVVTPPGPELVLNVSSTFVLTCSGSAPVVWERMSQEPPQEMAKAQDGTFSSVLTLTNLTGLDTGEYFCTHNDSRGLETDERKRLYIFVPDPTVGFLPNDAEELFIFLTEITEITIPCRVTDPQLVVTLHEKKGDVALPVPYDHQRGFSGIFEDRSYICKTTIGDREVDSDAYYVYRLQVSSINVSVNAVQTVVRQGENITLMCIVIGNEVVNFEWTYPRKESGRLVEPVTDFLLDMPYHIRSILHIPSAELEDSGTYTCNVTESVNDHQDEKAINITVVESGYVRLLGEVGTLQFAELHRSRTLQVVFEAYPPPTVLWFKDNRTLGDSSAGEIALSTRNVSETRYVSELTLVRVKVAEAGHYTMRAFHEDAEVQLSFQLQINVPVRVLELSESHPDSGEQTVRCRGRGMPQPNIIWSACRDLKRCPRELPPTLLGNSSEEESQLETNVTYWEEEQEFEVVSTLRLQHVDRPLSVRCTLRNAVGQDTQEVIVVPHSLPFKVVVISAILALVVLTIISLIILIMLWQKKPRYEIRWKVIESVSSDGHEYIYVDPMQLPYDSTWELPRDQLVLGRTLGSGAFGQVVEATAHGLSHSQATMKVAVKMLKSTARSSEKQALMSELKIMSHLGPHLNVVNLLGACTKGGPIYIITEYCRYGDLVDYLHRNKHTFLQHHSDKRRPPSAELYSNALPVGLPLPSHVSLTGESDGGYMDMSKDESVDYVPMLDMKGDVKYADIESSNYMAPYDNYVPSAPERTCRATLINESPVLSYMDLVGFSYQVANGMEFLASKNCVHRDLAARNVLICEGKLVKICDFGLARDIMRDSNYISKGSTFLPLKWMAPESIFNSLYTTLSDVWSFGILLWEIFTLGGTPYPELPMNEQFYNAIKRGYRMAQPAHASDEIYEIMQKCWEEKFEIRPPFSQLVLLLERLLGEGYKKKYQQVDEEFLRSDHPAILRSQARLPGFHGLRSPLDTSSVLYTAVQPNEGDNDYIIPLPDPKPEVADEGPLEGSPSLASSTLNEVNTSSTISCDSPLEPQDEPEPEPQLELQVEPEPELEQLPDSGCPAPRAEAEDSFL
UniProt P07333, 20-972 limits assumed: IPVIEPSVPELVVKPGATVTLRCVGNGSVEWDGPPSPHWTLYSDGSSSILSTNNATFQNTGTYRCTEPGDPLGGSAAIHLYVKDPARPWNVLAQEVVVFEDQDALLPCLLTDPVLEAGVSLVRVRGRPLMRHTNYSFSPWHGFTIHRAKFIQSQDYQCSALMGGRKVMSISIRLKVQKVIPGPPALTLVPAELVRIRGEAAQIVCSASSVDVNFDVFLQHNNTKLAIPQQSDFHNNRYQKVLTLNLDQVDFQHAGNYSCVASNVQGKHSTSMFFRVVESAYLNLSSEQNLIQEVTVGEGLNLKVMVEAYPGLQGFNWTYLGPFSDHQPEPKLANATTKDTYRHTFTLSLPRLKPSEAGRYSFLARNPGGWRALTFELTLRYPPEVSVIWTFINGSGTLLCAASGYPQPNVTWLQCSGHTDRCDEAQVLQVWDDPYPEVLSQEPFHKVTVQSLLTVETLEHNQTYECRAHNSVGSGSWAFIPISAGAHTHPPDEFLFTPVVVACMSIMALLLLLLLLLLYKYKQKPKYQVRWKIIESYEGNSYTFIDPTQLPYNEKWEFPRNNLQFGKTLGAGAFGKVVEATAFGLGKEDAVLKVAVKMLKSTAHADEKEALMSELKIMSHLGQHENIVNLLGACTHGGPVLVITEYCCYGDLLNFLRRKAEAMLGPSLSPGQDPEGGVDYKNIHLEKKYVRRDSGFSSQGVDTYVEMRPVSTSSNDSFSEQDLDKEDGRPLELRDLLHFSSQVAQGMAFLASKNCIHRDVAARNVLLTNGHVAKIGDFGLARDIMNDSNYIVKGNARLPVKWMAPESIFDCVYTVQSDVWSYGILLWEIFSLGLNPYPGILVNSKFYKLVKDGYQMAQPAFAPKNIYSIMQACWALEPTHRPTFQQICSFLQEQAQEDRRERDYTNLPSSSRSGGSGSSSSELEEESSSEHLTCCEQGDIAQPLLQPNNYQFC

Assays:
c-KIT = c-KIT (Homo sapiens, UniProt P10721); assay: c-KIT Cell-Based Assay (Example D); conditions: read-out: cKIT Cell ELISA IC50; averaged IC50; phospho-c-KIT in M-07e cells stimulated with 150 ng/ml recombinant human SCF
Method: The ability of compounds of Formula I to inhibit c-KIT activation in cells was determined by the following assay. M-07e cells (human acute megakaryoblastic leukemia cell line) were serum-starved for 4 hours prior to treatment with compounds of Formula I for 1 hour. The concentration of compounds of Formula I was varied over a 9-point, 3-fold dilution series with 5,000 nM typically being the highest dose. Cell culture and treatment were carried out in a humidified 37° C., 5% CO2 incubator. Treated cells were stimulated with 150 ng/ml recombinant human SCF for 4 minutes to induce activation of c-KIT. Cells were lysed in a manner which preserves phosphoproteins, and the lysate was analyzed by ELISA (R&D Systems, Human Phospho-SCF R DuoSet IC DYC3527), in which total c-KIT protein in the lysate is captured and phosphotyrosine residues of c-Kit are detected. A standard curve, made using purified phospho-SCF R protein, was used to quantify phospho-c-KIT in compound-treated wells. A standard 4-parameter logistic model was fit to the inhibitor dose response curves, with the IC50 being defined as the concentration of inhibitor giving 50 percent of control (POC).

PDGFR beta [1] = target: T1, PDGFR beta (Homo sapiens, UniProt P09619); assay: Phospho PDGFR LICOR Cell Assay (Example B); conditions: read-out: PDGFR Cell LICOR IC50; averaged IC50; PDGFR beta phosphorylation in HS27 human fibroblast cell line, PDGF-BB stimulation 10 minutes, normalized to total ERK
Method: Compounds were screened for inhibition of PDGFR beta phosphorylation in the HS27 human fibroblast cell line. Cells were seeded into a 96 well tissue culture plate, then incubated overnight in a 37° C./5% CO2 incubator. The following day, cells were treated for one hour with test compound dilutions. After stimulation with PDGF-BB ligand for 10 minutes, cells were washed with PBS and fixed in 3.7% formaldehyde in PBS for 10 minutes. This was followed by washing in PBS/0.2% Triton X-100 and permeabilizing in 100% MeOH for 10 minutes. Cells were incubated in blocking buffer for 1 hour. Antibodies to phosphorylated PDGFRβ and total ERK were added to the cells and incubated for 3 hours. After washing with PBS/0.2% Triton X-100, the cells were incubated with fluorescently-labeled secondary antibodies for an additional hour. Cells were then washed with PBS and analyzed for fluorescence at both wavelengths using the Odyssey Infrared Imaging System (LI-COR Biosciences). Phosphorylated PDGFR signal was normalized to total ERK signal. A standard 4-parameter logistic model was fit to the inhibitor dose response curves, with the IC50 being defined as the concentration of inhibitor giving 50 percent of control (POC).

cFMS = cFMS (Homo sapiens, UniProt P07333); assay: cFMS Cell-Based Assay (Example C); conditions: read-out: cFMS Cell ELISA IC50; averaged IC50; phospho-cFMS in THP-1 cells stimulated with 250 ng/mL recombinant human MCSF
Method: The ability of compounds of Formula I to inhibit cFMS activation in cells was determined by the following assay. THP-1 cells (human acute monocytic leukemia cell line) were serum-starved for 4 hours prior to treatment with compounds of Formula I for 1 hour. The concentration of compounds of Formula I was varied over a 9-point, 3-fold dilution series with 5,000 nM typically being the highest dose. Cell culture and treatment were carried out in a humidified 37° C., 5% CO2 incubator. Treated cells were stimulated with 250 ng/mL recombinant human MCSF for 1 minute to induce activation of cFMS. Cells were lysed in a manner which preserves phosphoproteins, and the lysate was analyzed by ELISA (R&D Systems, Human Phospho-M-CSF R DuoSet IC DYC3268), in which total cFMS protein in the lysate is captured and phosphotyrosine residues of cFMS are detected. A standard curve, made using purified phospho-M-CSF R protein, was used to quantify phospho-c-FMS in compound-treated wells. A standard 4-parameter logistic model was fit to the inhibitor dose response curves, with the IC50 being defined as the concentration of inhibitor giving 50 percent of control (POC).

PDGFR beta [2] = target: T1, PDGFR beta; assay: Phospho PDGFR Cell Assay, sandwich ELISA (Example A); conditions: read-out: PDGFR Cell ELISA IC50, averaged IC50, PDGFR beta phosphorylation in HS27 human fibroblast cell line, PDGF-BB stimulation 5 minutes
Method: Compounds were screened for inhibition of PDGFR beta phosphorylation in the HS27 human fibroblast cell line. Cells were seeded into a 96 well tissue culture plate, then incubated overnight in a 37° C., 5% CO2 incubator. The following day, cells were treated for one hour with test compound dilutions. After stimulation with PDGF-BB ligand for 5 minutes, cells were lysed and added to a sandwich ELISA plate from R&D Systems to detect levels of phospho PDGFR beta. A standard 4-parameter logistic model was fit to the inhibitor dose response curves, with the IC50 being defined as the concentration of inhibitor giving 50 percent of control (POC).

| Structure (SMILES) | pIC50 (c-KIT) | pIC50 (PDGFR beta [1]) | pIC50 (cFMS) | pIC50 (PDGFR beta [2]) |
| --- | --- | --- | --- | --- |
| O=C(Nc1cccc2c1cnn2Cc1ccccc1)c1cnc2ccc(F)cn12 | 7.44 | 7.66 | 7.24 |  |
| COCCOc1ccn2c(C(=O)Nc3cccc4c3cnn4Cc3ccc(F)cc3F)cnc2c1 | 8.08 |  | 7.98 | 7.58 |
